Columns and labels:
OPM2-FcRH5 tumors [1] = test: Inhibition of in vivo tumor growth, OPM2-FcRH5 xenografts (Example 5); parameters: species or system CB17 ICR SCID mice; settings: single i.v. dose 4 mg/kg Ab, day 0, 8 mice
Experimental: To test the efficacy of hu10A8 thioMAb drug conjugates with MC-vc-PAB-MMAE and hu10A8 drug conjugates with SPDB-DM4, the effects of the 10A8 thioMab drug conjugates and 10A8 drug conjugates on tumors in mice were analyzed.
(§1) Specifically, the ability of the antibodies to regress tumors in OPM2 cells (Multiple myeloma cell line) stably transfected with human FcRH5 was examined.
(§2) After transfection of linearized pRK.CMV.PD.nbe.FcRH5 into OPM2 cells and puromycin (Calbiochem, San Diego, Calif.) selection, surviving cells were separated for FcRH5 expressing cells with biotin (Pierce Biotechnology, Rockford, Il) labeled anti-FcRH5.7D11 and MACS anti-Biotin microbeads on an MACS LS column (Miltenyi Biotec, Auburn, Calif.).
For analysis of efficacy of hu10A8 thioMAb drug conjugates with MC-vc-PAB-MMAE and hu10A8 druge conjugates with SPDB-DM4, female CB17 ICR SCID mice (6-8 weeks of age from Charles Rivers Laboratories; Hollister, Calif.) were inoculated subcutaneously with 2×10^7 OPM2-FcRH5 cells via injection into the flanks of CB17 ICR SCID mice and the xenograft tumors were allowed to grow to an average of 180 mm^3. Day 0 refers to the day the tumors were an average of 100-250 mm^3 and when the first/or only dose of treatment was administered, unless indicated specifically below. Tumor volume was calculated based on two dimensions, measured using calipers, and was expressed in mm^3 according to the formula: V=0.5a X b^2, where a and b are the long and the short diameters of the tumor, respectively. Data collected from each experimental group were expressed as mean±SE. Groups of 8 mice were treated with a single intravenous (i.v.) dose of 2, 4, or 8 mg ADC/kg of with anti-FcRH5 ADC or control antibody-drug conjugates. Tumors were measured twice a week throughout the experiment. Body weights of mice were measured once a week throughout the experiment. […] All animal protocols were approved by an Institutional Animal Care and Use Committee (IACUC).

OPM2-FcRH5 tumors [2] = test: Inhibition of in vivo tumor growth, OPM2-FcRH5 xenografts, dose range of hu10A8-SPDB-DM4 (Example 6); parameters: species or system CB17 ICR SCID mice; settings: single i.v. dose 12 mg/kg Ab, day 0, 9 mice
From the text: as §1, §2
Day 0 refers to the day the tumors were an average of 100-250 mm^3 and when the first/or only dose of treatment was administered, unless indicated specifically below. […] Data collected from each experimental group were expressed as mean±SE. […] Tumors were measured twice a week throughout the experiment. Body weights of mice were measured once a week throughout the experiment. […] All animal protocols were approved by an Institutional Animal Care and Use Committee (IACUC).

[3] = tested on: OPM2-FcRH5 tumors (OPM2 multiple myeloma cells stably transfected with human FcRH5); test: OPM2-FcRH5 xenograft: Hu anti-FcRH5 10A8-SPDB-DM4 alone and in combination with Velcade; assay type: in vivo, CB17 ICR SCID mice; settings: 37 day time course; ADC 4 mg/kg single IV day 0; Velcade 1 mg/kg IV days 0, 3, 7, 10
From the text: Specifically, the ability of the antibody and Velcade® to regress tumors in OPM2 cells (Multiple myeloma cell line) stably transfected with human FcRH5 was examined. After transfection of linearized […]5 into OPM2 cells and puromycin (Calbiochem, San Diego, Calif.) selection, surviving cells were separated for FcRH5 expressing cells with biotin (Pierce Biotechnology, Rockford, Il) labeled anti-FcRH5.7D11 and MACS anti-Biotin microbeads on an MACS LS column (Miltenyi Biotec, Auburn, Calif.). Post separation FcRH5 expression was confirmed by FACS analysis using anti-FcRH5 antibodies (10A8) and an OPM2 cell line transfected, in the same manner, with the empty vector pRK.CMV.PD.nbe as a negative control. […] Tumor volume was calculated based on two dimensions, measured using calipers, and was expressed in mm3 according to the formula: […] Data collected from each experimental group were expressed as mean±SE. Mice were randomized into six groups of 9 mice each and dosed. […] Group 2 received a single IV injection of histidine buffer on Day 0 plus IV injections of 0.9% sodium chloride (saline) twice weekly for two weeks on Days 0, 3, 7, and 10 as a vehicle control. […] Tumors were measured twice a week throughout the experiment. Body weights of mice were measured twice a week for the first three weeks. […] All animal protocols were approved by an Institutional Animal Care and Use Committee (IACUC). Negative control included anti-HER2 (HERCEPTIN®) (trastuzumab)) based conjugate (SPDB-DM4).

[4] = tested on: EJM-FcRH5.LSP.2 tumors (EJM multiple myeloma cells stably transfected with human FcRH5); test: EJM-FcRH5.LSP.2 xenograft: hu10A8-SPDB-DM4 at different dosages; assay type: in vivo, CB17 ICR SCID mice; settings: 8 mg/kg single IV day 0; 24 day time course
Experimental: To test the efficacy of hu10A8 drug conjugates with SPDB-DM4 (“hu-Anti-FcRH5 (10A8)-SPDB-DM4”) at different dosages, the effects of the conjugated antibody on tumors in mice were analyzed.
Specifically, the ability of the antibodies to regress tumors in EJM cells (Multiple myeloma cell line) stably transfected with human FcRH5 was examined.
EJM (ACC-560) cells are a commercially available human multiple myeloma cell line obtained from DSMZ (Germany).
For analysis of efficacy of hu10A8 drug conjugates with SPDB-DM4, female CB17 ICR SCID mice (6-8 weeks of age from Charles Rivers Laboratories; Hollister, Calif.) were inoculated subcutaneously with 2×10^7 EJM2-FcRH5.LSP.2 cells via injection into the flanks of CB17 ICR SCID mice and the xenograft tumors were allowed to grow to an average of 134 mm^3. Day 0 refers to the day the tumors were an average of 100-250 mm^3 and when the first/or only dose of treatment was administered, unless indicated specifically below. Tumor volume was calculated based on two dimensions, measured using calipers, and was expressed in mm^3 according to the formula: V=0.5a×b^2, where a and b are the long and the short diameters of the tumor, respectively. Data collected from each experimental group were expressed as mean±SE. Groups of 8 mice were treated with a single intravenous (i.v.) dose ranging from 2 to 8 mg ADC/kg of with anti-FcRH5 ADC or control antibody-drug conjugates (ADCs). Tumors were measured twice a week throughout the experiment. Body weights of mice were measured once a week for 2 weeks. […] All animal protocols were approved by an Institutional Animal Care and Use Committee (IACUC).
Negative control included anti-HER2 (HERCEPTIN® (trastuzumab)) based conjugate (SPDB-DM4).

Row | Substance | CR (Complete Remission, number of mice) (OPM2-FcRH5 tumors [1]) | PR (Partial Regression, number of mice) (OPM2-FcRH5 tumors [1]) | TI (number of observable tumors at end of study) (OPM2-FcRH5 tumors [1]) | CR (Complete Remission, number of mice) (OPM2-FcRH5 tumors [2]) | PR (Partial Regression, number of mice) (OPM2-FcRH5 tumors [2]) | CR (mice with Complete Remission: tumor volume dropped to 0 mm^3) [3] | PR (mice with Partial Regression: tumor volume dropped below 50% of day 0) [3] | TI (number of observable tumors at end of study) [3] | CR (mice with Complete Remission) [4] | PR (mice with Partial Regression) [4] | TI (number of observable tumors at end of study) [4]
1 | Anti-Her2 (4D5)-spdb-dm4: negative control, humanized anti-HER2 conjugated with SPDB-DM4 | 0 | 0 | 8/8 | 0 | 0 | – | – | – | – | – | –
2 | Hu anti-Her2 Trastuzumab-SPDB-DM4 | – | – | – | – | – | 0 | 0 | 8/8 | 0 | 0 | 8/8

Reference: US9360484B2, “Anti-FcRH5 antibodies and immunoconjugates and methods of use” (Genentech, Inc., priority 2009, dated 2016)
